Results from publication PMC10579241, “Impact of trifluoromethyl and sulfonyl groups on the biological activity of novel aryl-urea derivatives: synthesis, in-vitro, in-silico and SAR studies” (Scientific Reports, 2023).
Marks after values point to notes of the source that are not given here.

Tested on: A549
Assay: DNA damage, comet assay, A549
Type: cell-based, human

COc1cccc2c1C(=O)c1c(O)c3c(c(O)c1C2=O)C[C@@](O)(C(=O)CO)C[C@@H]3O[C@H]1C[C@H](N)[C@H](O)[C@H](C)O1 [Doxorubicin, reference compound]
DNA damaged cells % (mean ± SEM): 21.52 ± 1.04^a %
